miR-21 reporter = miR-21 reporter, rising signal; HeLa miR-21 FLuc reporter, luciferase, 48 h; Potency, µM (doses to about 38.3 µM); 340,000 tested, under 10 active; AID 2288; active = well fitted rising curve with a large enough effect; inconclusive = small, poorly fitted or top-dose-only effect; inactive = no such curve, though single readings can be large or run the other way;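 further: miR-21 action dims this reporter so a rising signal means less miR-21 action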
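HeLa cells stably expressing CMV-driven firefly luciferase with a downstream miR-21 binding sequence, endogenously expressing miR-21, were treated with titrations (up to about 40uM final) for 48 hours at 37 degree Celsius. Luciferase luminescence was read after lysis.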
Giardia kill = kills Giardia lamblia; Giardia lamblia trophozoite viability; activity change, % at 7.66 µM, hits read low; 0.15% of 340,000 active; AID 540267; in the data active = activity change below about -80%; inconclusive = between about -30% and that limit;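 also: parasites exposed to compound for two days anaerobically before the ATP read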
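Each well holds 100 Giardia trophozoites and compound. After two days (48 hrs) at 37 deg C in anaerobic conditions, ATP is quantified by luminescence.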
uPA surface inh = cell surface uPA generation inhibition | 0.31% of 330,000 active | Potency, µM (top dose mostly 38.3 µM), actives largely listed as inhibitors | cell surface uPA generation assay, qHTS | AID 540303; active = well fitted inhibition curve with a large enough effect; inconclusive = small, poorly fitted or top-dose-only effect; inactive = no such curve, though single readings can be large or run the other way; tested in mouse RAW 264.7 cells; also: nearly all actives have a fitted effect of over 55% in size
GALK inhibitor = blocks human galactokinase activity. P51570. Purified GALK, Kinase-Glo residual ATP luminescence. Potency, µM (series often up to 57.5 µM), actives largely listed as inhibitors. 0.007% of 270,000 active
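ATP-depletion format; final 35 uM ATP, 100 uM D-galactose, 5 nM enzyme; pH 8.0 HEPES/Mg2+ buffer; 60 min RT; luminescence read 10 min after detection reagent.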
B2AR arrestin = agonists driving beta-arrestin recruitment to human beta2-adrenergic receptor | P07550 | beta-arrestin recruitment to beta2AR, cell-based reporter | Potency, µM (highest dose often 46.1 µM), actives largely listed as activators | 0.02% of 330,000 active | AID 492947; also: nearly all actives have a fitted effect of over 65% in size
Coupling enz = counter-screen for Giardia aldolase inhibitors: coupling enzyme system. activity change, negative = inhibition, % at 58.2 µM, hits read low. coupling enzyme system counterscreen, AmpLite Red fluorescence. 0.67% of 290,000 active; in the data active = activity change below about -30%
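Coupling enzymes only (glyceraldehyde-3-phosphate) + compound, at 57.5 uM final, 10 min RT; add substrate/coupling/AmpLite Red mix, 20 min RT; fluorescence ex 525/em 598 nm. Actives flag coupling-system interference.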
Numbers stand for hits; – = inactive; ? = inconclusive; · = no result. A selection: hits, their analogues and other compounds. The true share with any hit is near 0.92%. Unless noted, calls follow the shape of the dose curve; as a rule, active = well fitted curve in the direction sought with a large enough effect; inconclusive = small, poorly fitted or top-dose-only effect, or another doubt; inactive = no such curve, though single readings can be large; an effect the other way counts as inactive or inconclusive.

SMILES	miR-21 reporter	Giardia kill	uPA surface inh	GALK inhibitor	B2AR arrestin	Coupling enz
CCCN1CNc2c(c(=O)[nH]c(=S)n2CCCc2ccccc2)C1	·	–	·	·	·	·
COc1cccc(C(C[N+](=O)[O-])c2c(C)[nH]n(-c3ccccc3)c2=O)c1 (stereo unspecified)	–	–	–	–	–	-44.3
COC(=O)c1cc2oc3ccccc3c2n1CC(=O)Nc1ccc(N(C)C)cc1	–	·	·	·	·	·
N/C(=N\O)c1cn(Cc2ccccc2Cl)c2ccccc12	–	–	–	–	–	–
Cc1[nH][nH]c(=O)c1C(c1c(C)[nH][nH]c1=O)c1cn(Cc2ccccc2Cl)c2ccccc12	–	–	–	–	–	-43.0
CCOC(=O)c1cc(-c2ccccc2)n(-c2cccc(C(=O)Nc3cccc(SC)c3)c2)c1C	–	·	·	·	·	·
COc1ccc(-c2nc(Cn3c(SCc4ccc(C)cc4)nc4ccncc43)c(C)o2)cc1OC	–	–	8.91µM	–	–	–
O=C(Nc1nc2ccccc2s1)c1ccccc1[N+](=O)[O-]	–	–	–	–	–	–
O=C(Nc1nc2ccccc2s1)c1ccc([N+](=O)[O-])o1	–	-99.7	–	–	–	–
O=C(Nc1ccc(Cl)cn1)c1ccc([N+](=O)[O-])o1	–	?	–	–	–	–
COc1ccc2nc(NC(=O)c3ccc([N+](=O)[O-])o3)sc2c1	–	-96.7	–	–	–	–
O=C(Nc1nc2cc3c(cc2s1)OCCO3)c1ccc([N+](=O)[O-])o1	–	-88.6	–	–	–	·
O=C(Nc1c(Cl)ccc2nsnc12)c1ccc([N+](=O)[O-])o1	–	-86.7	?	–	–	–
COc1ccc(-c2cc(C(F)(F)F)nc(SCCC(=O)Nc3ccc(F)cc3F)n2)cc1	–	·	·	·	·	·
OC1OC[C@H](O)[C@@H](O)[C@H]1O (stereo partly specified)	·	·	·	·	·	–
Cc1ccc(NC(=O)CN2C(=O)C(c3ccc(C(C)(C)C)cc3)=NC2(C)C)cc1	–	·	·	·	·	·
COc1ccccc1C(=O)Nc1nc2cc3c(cc2s1)OCO3	–	–	–	–	–	–
COc1ccccc1C(=O)Nc1nc2cc3c(cc2s1)OCCO3	–	?	2.82µM	–	–	–
COc1ncnc2c1NC1=C(S2)C(=NCCC(=O)O)CC(C)(C)C1	–	–	–	–	–	-48.1
O=c1c(-c2cc(F)cc(F)c2)nc2cnc(N3CCNCC3)nc2n1Cc1ccc(F)cc1	·	·	·	·	·	–
CCCCN1C(=O)C(O)(CC(=O)c2ccc(C(C)(C)C)cc2)c2ccccc21 (stereo unspecified)	–	·	·	·	·	·
Fc1ccccc1-c1ccc(/C=N/Nc2nc3ccccc3[nH]2)o1	–	–	3.98µM	–	–	–
CC1(C)OC(=O)C2(Cc3ccccc3N3CCC(c4ccccc4)CC32)C(=O)O1 (stereo unspecified)	·	–	·	·	·	·
OCCNCCCCSc1ccc(Cl)cc1	–	–	8.91µM	–	–	–
COc1ccc(C2Nc3ccccc3-c3nnc(SC)nc3O2)cc1C (stereo unspecified)	–	·	·	·	·	·
SMILES	miR-21 reporter	Giardia kill	uPA surface inh	GALK inhibitor	B2AR arrestin	Coupling enz
Cc1ccc(S(=O)(=O)Nc2cccc(C(=O)NCc3cccnc3)c2)cc1F	·	–	3.16µM	·	–	·
CCOC(=O)c1c(C)[nH]c(C2=NNC(=Nc3ccc(OCC)cc3)SC2)c1C	–	–	–	–	–	–
CCOC(=O)c1c(C)[nH]c(C2=NNC(=Nc3ccccc3)SC2)c1C	–	–	?	–	–	-38.0
CCOC(=O)c1[nH]c(C)c(C(=O)Nc2ccc(C)cc2C)c1C	–	–	2.51µM	–	–	–
Nc1ccc(Sc2cc(Cl)nc(N)n2)cc1	–	·	·	–	–	–
Nc1nc(N)c2cc(Sc3ccc4ccccc4c3)ccc2n1	?	–	2µM	·	–	–
CC(C)(C)C1=CC(=O)C(=O)C(C(C)(C)C)=C1	–	–	–	–	–	-47.8
CC(C)(C)C1=CC(=Nc2ccccc2N)C=C(C(C)(C)C)C1=O	–	–	–	–	–	–
OC[C@H]1OC(O)[C@@H](O)[C@@H](O)[C@H]1O (stereo partly specified)	·	·	·	·	·	–
Cc1ccc(S(=O)(=O)N2CCN=C2SCc2ccccc2)cc1	–	–	–	–	–	-35.1
O=S(=O)(c1ccccc1)N1CCN=C1SCc1ccccc1Cl	–	–	–	–	–	-40.0
COCCn1c(N)c(C(=O)OCc2ccccc2)c2nc3ccccc3nc21	–	–	–	–	–	-36.7
CC(=O)N[C@@H](CSC(=O)[C@]1([C@@H](O)C(C)C)NC(=O)[C@H](C)[C@@H]1O)C(=O)O	·	·	·	·	·	–
COc1ccc(OC)c(C2CC(=O)N3CN(c4ccccc4F)CSC3=C2C#N)c1 (stereo unspecified)	–	–	–	–	–	-83.9
CCc1ccccc1N1CSC2=C(C#N)C(c3cc(OC)c(OC)cc3OC)CC(=O)N2C1 (stereo unspecified)	–	–	–	–	–	-52.3
CN1CCN(C2(CNC(=O)c3ccc(C(C)(C)C)cc3)CCCCC2)CC1	–	·	·	·	·	·
CN(C)CC/C=C1/c2ccccc2Sc2c(O)cc(Cl)cc21	–	–	–	–	–	-30.8
CNc1ccc(Br)cc(C(=O)/C=C/c2ccc(OC)cc2OC)c1=O	–	–	–	–	–	-38.5
CCOc1cc(/C=N/Nc2nc(N3CCCCC3)nc(N3CCCCC3)n2)ccc1OC(=O)c1ccco1	–	–	12.6µM	–	–	–
Cc1ccccc1Oc1cc(-n2ncc(Cl)c(Cl)c2=O)ncn1	?	–	2.24µM	–	–	–
COc1ccc(-n2nc3c(N4CCC(C(=O)NCc5cccc(F)c5)CC4)nnc(C)c3c2C)cc1	–	·	·	·	·	·
CN(CC(=O)Nc1cccc(F)c1)C(=O)c1ccc2c(c1)CC(c1ccccc1)OC2=O (stereo unspecified)	·	–	3.98µM	·	–	·
COCCCNC(=O)c1c(NC(=O)c2cc(=O)c3ccccc3o2)sc2c1CCCC2	–	·	·	·	·	·
CCOc1ccc(N(CC(=O)Nc2ccc(C)c(C)c2)S(=O)(=O)c2c(C)noc2C)cc1	–	–	12.6µM	–	–	–
CCOc1ccc(N(CC(=O)Nc2cccc(F)c2)S(=O)(=O)c2c(C)noc2C)cc1	–	–	?	–	–	–
SMILES	miR-21 reporter	Giardia kill	uPA surface inh	GALK inhibitor	B2AR arrestin	Coupling enz
CC(=O)Oc1cc(-c2coc3cc(OC(C)=O)c(OC(C)=O)c(OC(C)=O)c3c2=O)cc(OC(C)=O)c1OC(C)=O	·	·	·	·	·	-51.2
COc1cc(-c2coc3cc(OC)c(OC)c(OC)c3c2=O)cc(OC)c1OC	·	·	·	·	·	–
Cc1c(Cl)ccc2sc(N3CCN(C(=O)CS(=O)(=O)c4ccccc4)CC3)nc12	–	·	·	·	·	·
Cc1ccc(C)c(N2CCN(C(=O)C3CCN(S(=O)(=O)c4ccc5[nH]c(=O)oc5c4)CC3)CC2)c1	–	·	·	·	·	·
O=C(CCC(=O)Nc1ccc(Cl)cc1Cl)N/N=C/c1ccc([N+](=O)[O-])o1	?	-82.0	–	–	–	–
O=C(Cc1ccc2c(c1)OCO2)NN=Cc1ccc([N+](=O)[O-])o1	·	-102.4	–	·	–	·
